Literature values in publication PMC11506537, “An 11-mer Synthetic Peptide Suppressing Aggregation of Aβ25-35 and Resolving Its Aggregated Form Improves Test Performance in an Aβ25-35-Induced Alzheimer’s Mouse Model” (Biomolecules, 2024).

Tested on: patients with AD
Conditions: no reference at this sentence; cited from earlier work
Text: Alzheimer’s disease (AD) is the most common age-related neurodegenerative disorder worldwide. Amyloid-β (Aβ) 42, which is produced by the cleavage of amyloid precursor protein (APP) by β- or γ-secretases, is considered to cause AD [1, 2, 3]. […] Thus, the current main strategy is to develop Aβ antibodies and vaccines aimed at inhibiting Aβ aggregation. Recently, aducanumab, an antibody drug that inhibits Aβ aggregation, has been approved by the U.S. Food and Drug Administration. […] Lecanemab, the latest Aβ ant ...

## Aducanumab: antibody drug that inhibits Aβ aggregation
  effect on clinical manifestation of mild AD: inhibit the clinical manifestation of mild AD
